Measured values taken from patent US11000627B2, “Treatment of implants with phosphonic acid compounds” (Nano Bridging Molecules SA, priority 2016, dated 2021).

What was measured:
Type in all cases: physicochemical
[1] = XPS phosphorus over metal ratio on Titanium grade 5 dental implant (prospective data)
Protocol: A Titanium grade 5 dental implant (bulk composition atomic concentration Titanium 90%, Aluminum 6%, Vanadium 4%; length 11.0 mm, diameter 3.75 mm) is provided with a roughened surface, produced by sand blasting and acid etching according to industry standards. The dental implant is immersed in 30 ml of a 2% (v/v) aqueous solution of deconex 15 PF-x (which is a phosphate free, potassium hydroxide based standard cleaning agent). The solution is placed in an ultrasonic bath (output frequency 30 kHz) and sonicated at 65° C. for 15 min. The implant is removed from the cleaning agent solution and rinsed with water as follows: 2 times with 30 ml, swirling at room temperature; 4 times with 30 ml, sonicating for 2 min at 65° C.; 1 time with 30 ml, swirling at room temperature. […] The solution is placed in the ultrasonic bath and sonicated at 65° C. for 10 min. The implant is rinsed with water as follows: 2 times with 10 ml, swirling at room temperature; 1 time with 10 ml, sonicating for 2 min at 65° C.; 1 time with 10 ml, swirling at room temperature. The dental implant is dried in a desiccator over P2O5 and under vacuum (ca 20 mbar) for at least 3 hours. The samples are analyzed by X-ray photoelectron spectroscopy (XPS). Same analysis conditions as described in Example 8 are used.

[2] = XPS phosphorus over metal ratio on Titanium grade 4 cylinders
[3] = XPS phosphorus over metal ratio on Titanium grade 5 dental implant (prospective data); remark: listed apart in the source

diethylenetriamine penta(methylene phosphonic acid) [PA-7]
Phosphorus/Metal (surface treatment as described herein above) [1]: 0.16-0.20 | Phosphorus/Metal [2]: 0.16^b | Phosphorus/Metal (surface treatment as described in Comp. Example 6) [3]: 0.05-0.11

Marks after values point to notes of the source that are not given here.
